This is an account of results in US20130129725A1 (published 2013).

Sequences of proteins named here, by UniProt entry; tags and fusion partners are left off. Residues count along the entry.
UniProt Q86Z14, 53-996: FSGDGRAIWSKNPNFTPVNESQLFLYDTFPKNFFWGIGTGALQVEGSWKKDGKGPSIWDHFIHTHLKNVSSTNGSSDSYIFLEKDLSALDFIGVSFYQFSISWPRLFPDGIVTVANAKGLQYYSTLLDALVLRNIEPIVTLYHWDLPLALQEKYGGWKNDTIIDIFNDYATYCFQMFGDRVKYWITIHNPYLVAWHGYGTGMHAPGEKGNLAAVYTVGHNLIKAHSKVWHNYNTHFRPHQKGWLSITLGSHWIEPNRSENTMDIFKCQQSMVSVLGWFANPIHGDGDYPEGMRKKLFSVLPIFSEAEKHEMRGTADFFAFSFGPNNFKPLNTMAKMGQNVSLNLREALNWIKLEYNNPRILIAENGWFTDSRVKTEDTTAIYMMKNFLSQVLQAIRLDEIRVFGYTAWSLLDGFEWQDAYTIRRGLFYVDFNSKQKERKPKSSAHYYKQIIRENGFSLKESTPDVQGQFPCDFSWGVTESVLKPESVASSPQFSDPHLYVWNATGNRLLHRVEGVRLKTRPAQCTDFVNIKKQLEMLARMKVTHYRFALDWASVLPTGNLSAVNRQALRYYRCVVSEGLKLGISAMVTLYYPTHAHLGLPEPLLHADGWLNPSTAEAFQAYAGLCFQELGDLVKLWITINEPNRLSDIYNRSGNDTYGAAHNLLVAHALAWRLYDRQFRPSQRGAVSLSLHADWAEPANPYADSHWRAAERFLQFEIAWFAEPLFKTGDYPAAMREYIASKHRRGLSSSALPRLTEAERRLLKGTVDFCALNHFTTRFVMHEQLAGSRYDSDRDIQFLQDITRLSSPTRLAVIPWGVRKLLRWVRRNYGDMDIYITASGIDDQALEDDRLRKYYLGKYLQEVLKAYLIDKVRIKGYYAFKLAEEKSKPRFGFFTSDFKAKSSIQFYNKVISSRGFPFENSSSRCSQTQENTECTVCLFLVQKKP

One may read the Kd as the concentration at which binding is half-saturated. Higher therefore signals weaker binding.

In the assay the target is biotinylated hu-β-klotho (UniProt Q86Z14 53-996, biotinylated (sites not given)). The assay is described as follows: Octet.

B1: 2G10 (antibody, V domains shown)
VH: QVQLVESGGGVVQPGRSLRLSCAASRFSFSRYGMHWVRQAPGKGLEWVAVIWFDGRNQYYADSVKGRFTISRDNSKNTLFLQMNSLRVEDTAVYYCARDHPVVGTSFDYWGQGTLVTVSS
VL: QSVLTQPPSVSAAPGQKVTVSCSGSSSNIGNNYVSWYQQLPGTAPKLLIYDNNKRPSGIPDRFSGSKSGTSATLGITGLQTGDEAEYYCGTWDSSLSVVAFGGGTKLTVLG
Molecule B1 returned a Kd of 0.129 nM.
